Experimental findings from PMC2360155, “Novel retinoic acid metabolism blocking agents have potent inhibitory activities on human breast cancer cells and tumour growth” (British Journal of Cancer, 2007) are described below.

The chains behind the UniProt entries cited, without tags or fusion partners.
UniProt P11416, whole entry: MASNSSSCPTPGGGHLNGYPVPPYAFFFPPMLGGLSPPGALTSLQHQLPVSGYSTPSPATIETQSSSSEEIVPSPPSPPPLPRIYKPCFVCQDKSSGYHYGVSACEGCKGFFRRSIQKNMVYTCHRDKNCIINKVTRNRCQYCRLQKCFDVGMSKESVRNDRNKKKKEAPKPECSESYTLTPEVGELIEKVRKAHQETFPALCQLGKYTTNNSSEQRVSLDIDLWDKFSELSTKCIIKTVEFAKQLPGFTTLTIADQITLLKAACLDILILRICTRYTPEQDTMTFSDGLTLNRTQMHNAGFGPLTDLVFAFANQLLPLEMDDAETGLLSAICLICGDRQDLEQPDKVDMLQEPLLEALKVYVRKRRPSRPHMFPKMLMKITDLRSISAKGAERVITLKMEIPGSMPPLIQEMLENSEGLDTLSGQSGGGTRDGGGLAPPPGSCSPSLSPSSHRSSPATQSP
UniProt P62965, whole entry: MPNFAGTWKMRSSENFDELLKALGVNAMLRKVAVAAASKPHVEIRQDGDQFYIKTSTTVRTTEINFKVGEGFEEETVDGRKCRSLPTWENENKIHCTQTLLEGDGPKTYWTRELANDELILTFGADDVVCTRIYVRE

Assay [1] concerns the target T1, RARα (Mus musculus, UniProt P11416). As to the kind of experiment: Retinoid receptor competition binding assay, RARα. More on the design: The full-length cDNA clones for RARα, RARβ, RARγ and RXRα were cloned into the prokaryotic expression vector pET29; S-Tag; made in house; host or cells: prokaryotic host (pET29 vector).
Assay [2] has as its target T1, RARα. As to the kind of experiment: Transactivation assay (RARE-CAT reporter, CV-1 cells), RARα. The assay is classed as cell-based. The conditions noted are these: 50% of maximal activity obtained with 10^−6 M all-trans-RA. On the procedure:
Briefly, CV-1 cells were cotransfected with 4 μg RAR subtype (RARα, RARβ or RARγ) expression vector construct in pSG5, 4 μg RARE-CAT reporter DNA and 1 μg pCMV-β-gal DNA. Twenty-four hours following transfection, the cells were treated with various concentrations of each RAMBA ranging from 10^−11–10^−5 M along with an ethanol carrier control. Additional cells were treated with 10^−6 M all-trans-RA for normalisation. Twenty-four hours later, the cells were harvested and CAT and β-gal activities were assayed.

For the next assay, the target named is T2, CRABPI (Mus musculus, UniProt P62965).
T2 construct: Wild-type full-length cDNAs for mouse CRABPI and CRABPII were subcloned into the prokaryotic expression vector pRSETB; pRSETB vector fusion leader (purified on Ni-NTA, so a His tag); made in house; host or cells: Escherichia coli BL21(DE3)pLys
As to the kind of experiment: CRABP competition binding assay, CRABPI. The conditions noted are these: for comparison; read-out: CRAPBI Kd. On the procedure:
Wild-type full-length cDNAs for mouse CRABPI and CRABPII were subcloned into the prokaryotic expression vector pRSETB and transformed into Escherichia coli strain BL21(DE3)pLys ([Chen et al, 1995]). Recombinant fusion proteins were prepared essentially as we have described previously using Ni-NTA resin ([Chen et al, 1995]). The binding of each RAMBA to CRABPI and CRABPII was determined by competition binding assays as described previously ([Chen et al, 1995]). […] IC50 values were calculated as described above in the RAR binding studies.

SMILES strings stand for the structures. pEC50, pKd: −log10 of the molar value.

The pKd is the Kd on a negative log10 scale, so that one unit is a factor of ten. By pEC50 is commonly meant the EC50 on a negative log10 scale, so that one unit is a factor of ten.

Turning to `CC1=C(/C=C/C(C)=C/C=C/C(C)=C/C(=O)O)C(C)(C)CCC1` [ATRA, all-trans-retinoic acid, reference compound], the negative logarithm of the Kd (pKd) at RARα [1] was 8.70; on CRABPI, 8.40. Besides, at RARα [2], the pEC50 was 7.70.
